This note sets out measurements from patent US7332519B2, “Spirocyclic cyclohexane compounds” (dated 2008).

By UniProt entry, the sequences of proteins in these tests, tags left out. Where a name states a change or a piece, a line headed by the entry shows the natural chain unless it says otherwise.
UniProt P35372: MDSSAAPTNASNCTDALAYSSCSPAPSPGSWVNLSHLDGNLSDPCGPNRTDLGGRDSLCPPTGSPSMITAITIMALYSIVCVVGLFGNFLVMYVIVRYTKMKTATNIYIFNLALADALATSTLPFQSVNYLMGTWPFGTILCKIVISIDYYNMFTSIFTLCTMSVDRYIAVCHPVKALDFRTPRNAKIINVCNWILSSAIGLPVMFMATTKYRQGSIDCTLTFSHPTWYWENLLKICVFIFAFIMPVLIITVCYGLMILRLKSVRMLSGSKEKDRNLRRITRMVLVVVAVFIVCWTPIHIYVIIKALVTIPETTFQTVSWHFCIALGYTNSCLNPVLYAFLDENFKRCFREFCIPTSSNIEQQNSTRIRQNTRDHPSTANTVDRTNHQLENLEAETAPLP
UniProt P41146: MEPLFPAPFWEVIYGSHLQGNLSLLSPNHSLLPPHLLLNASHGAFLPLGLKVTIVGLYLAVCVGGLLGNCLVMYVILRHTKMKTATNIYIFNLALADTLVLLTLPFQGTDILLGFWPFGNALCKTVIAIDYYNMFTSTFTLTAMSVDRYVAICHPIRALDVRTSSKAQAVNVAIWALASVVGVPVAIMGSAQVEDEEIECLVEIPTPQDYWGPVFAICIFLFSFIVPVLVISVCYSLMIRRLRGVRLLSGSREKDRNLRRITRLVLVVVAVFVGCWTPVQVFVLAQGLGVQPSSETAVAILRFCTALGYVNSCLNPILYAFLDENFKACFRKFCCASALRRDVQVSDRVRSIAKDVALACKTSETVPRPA

For one data set, the system named is mice. The experiment in a line: Muscle relaxation and anesthesia in mice. Conditions: at higher doses.
The subject of the next data set is male NMRI-mice. The experiment in a line: Mouse jumping test (naloxone-precipitated withdrawal, physical dependence capacity). Conditions: 7 i.p. injections over two days, 30 mg/kg naloxone i.p., jumps 0-10 min.
In the next data set the target is human μ-opiate receptor (Homo sapiens, UniProt P35372). The experiment in a line: Measurement of the μ-bond, [3H]-Naloxon displacement, membrane preparation of CHO-K1 cells expressing the receptor. Conditions: for ORμ_Nal % inhibition: test substance 1 μmole/liter.
A further data set has as its target ORL1 receptor (Homo sapiens, UniProt P41146). The data set is described as follows: Measurement of ORL1 binding, 3H-nociceptin/orphanin FQ receptor binding assay with membranes of recombinant CHO-ORL1 cells. Conditions: 0.5 nM 3H-nociceptin/orphanin FQ, test concentration not given.

As to `CN(C)C1(c2cccs2)CCC2(CC1)OCCc1c2[nH]c2ccccc12` (centres unmarked), the “muscle relaxation and anesthesia” value in the data set on mice was “induces muscle relaxation and anesthesia”. Moreover, the “jumping (withdrawal after naloxone)” value in the data set with male NMRI-mice was “completely suppressed”.
In general, Ki refers to a measure of affinity in units of concentration, obtained from inhibition or displacement. On to “1,1-[3-dimethylamino-3-(pyridin-2-yl)pentamethylene]-3,4-dihydro-1H-2-oxa-9-thiafluorene Citrate”, for which the Ki on human μ-opiate receptor (read-out: ORμ_Nal Ki, Cheng-Prusoff conversion) is 140 nM. Moreover, at ORL1 receptor, the ORL1 % inhibition is recorded as 49%.
At human μ-opiate receptor, “1,1-[3-dimethylamino-3-(2-thienyl)pentamethylene]-1,3,4,9-tetrahydro-pyrano[3,4-b]-6-fluoroindole Citrate” showed an ORμ_Nal % inhibition of 53%. For the same compound, the ORL1 % inhibition on ORL1 receptor is listed as 41%.
In the same order, the values of “1,1-[3-dimethylamino-3-(2-thienyl)pentamethylene]-1,3,4,9-tetrahydro-pyrano[3,4-b]indole Dimethanesulfonate” are 47% and 37%.
